Protein sequences, listed by entry. Tags and fused reporters are not part of them.
UniProt P42336, whole entry: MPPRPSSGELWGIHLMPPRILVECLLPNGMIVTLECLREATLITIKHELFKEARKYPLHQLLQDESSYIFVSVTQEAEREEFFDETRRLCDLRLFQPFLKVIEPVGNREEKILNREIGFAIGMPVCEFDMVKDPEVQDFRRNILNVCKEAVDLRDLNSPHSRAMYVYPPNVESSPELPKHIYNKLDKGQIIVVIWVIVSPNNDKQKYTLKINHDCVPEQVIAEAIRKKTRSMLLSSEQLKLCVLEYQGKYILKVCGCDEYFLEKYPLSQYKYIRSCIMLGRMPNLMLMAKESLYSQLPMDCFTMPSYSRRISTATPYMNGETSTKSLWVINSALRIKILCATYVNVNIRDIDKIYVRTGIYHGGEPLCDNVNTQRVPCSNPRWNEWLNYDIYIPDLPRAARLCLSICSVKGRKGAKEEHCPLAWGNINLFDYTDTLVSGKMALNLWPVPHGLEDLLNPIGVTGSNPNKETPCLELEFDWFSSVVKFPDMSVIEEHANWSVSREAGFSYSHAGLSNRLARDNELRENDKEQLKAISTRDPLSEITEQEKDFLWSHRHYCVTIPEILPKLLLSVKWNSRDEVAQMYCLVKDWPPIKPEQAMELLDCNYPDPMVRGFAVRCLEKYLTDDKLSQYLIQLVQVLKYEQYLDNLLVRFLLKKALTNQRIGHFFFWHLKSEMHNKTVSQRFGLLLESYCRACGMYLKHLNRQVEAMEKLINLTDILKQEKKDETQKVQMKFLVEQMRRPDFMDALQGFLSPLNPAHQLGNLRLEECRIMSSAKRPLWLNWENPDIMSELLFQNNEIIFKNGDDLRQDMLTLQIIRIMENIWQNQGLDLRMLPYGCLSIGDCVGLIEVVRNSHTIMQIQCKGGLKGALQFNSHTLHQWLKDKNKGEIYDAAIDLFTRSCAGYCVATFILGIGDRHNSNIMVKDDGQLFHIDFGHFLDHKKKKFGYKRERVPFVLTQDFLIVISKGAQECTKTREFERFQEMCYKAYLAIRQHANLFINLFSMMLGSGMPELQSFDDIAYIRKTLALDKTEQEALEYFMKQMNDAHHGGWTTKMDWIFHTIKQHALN

According to patent US8129371B2, “Thienopyrimidine and pyrazolopyrimidine compounds and their use as mTOR kinase and PI3 kinase inhibitors” (Wyeth LLC, priority 2007, dated 2012):

Target: T1, PI3K (Homo sapiens, UniProt P42336)
T1 construct: PI3 Kinase α IC50; other: PI3 Kinase α; other: PI3 Kinase α isoform, fluorescence polarization
Experiment: Fluorescence polarization assay for PI3K
Assay type: biochemical
Details: PI3 Kinase α
Procedure: This assay is used to determine the IC50 of compounds of the present invention as it identifies inhibitors of PI3 kinase by measuring inhibition.
The assay is run by placing 5 μL of diluted enzyme per well, then 5 μL of diluted compound (or 9.5 μL enzyme then 0.5 μL compound in DMSO) is added and mixed. Then, 10 μL substrate is added to start the reaction. The samples are incubated 30-60 minutes, then the reaction is stopped by adding 20 μL stop/detector mix. PI3K is diluted with reaction buffer (e.g., 5 μL or 7.5 μL PI3K into 620 μL reaction buffer), and 5 μL of diluted enzyme is used per well. 5 μL reaction buffer or drug diluted in buffer (e.g., 4 μL/100 so final DMSO is 1% in reaction) is added to each. Pipetting up and down mixes the samples. Alternatively, the enzyme can be diluted to 1215 μL. In this case 9.8 μL is added per well and 0.2 μL compound is added in DMSO. […]
Stop/detector mix is prepared by mixing 4 μL Red detector and 1.6 μL or 2.0 μL GST-GRP with 1 mL Stop buffer, which results in 10 nM probe and 70 nM GST-GRP). […] The plates are read after 30-90 minutes keeping the red probe solutions dark. […] Plates are read on machines with filters for Tamra. The units are mP with no enzyme controls reading app 190-220 mP units. Fully active enzyme reduces fluorescence polarization down to 70-100 mP after 30 minutes.

- IC50: 6.66 µM
SMILES: COC(=O)N1CCC(n2ncc3c(N4CC5CCC(C4)O5)nc(-c4ccc(NC(=O)NC5CC5)cc4)nc32)CC1 [Example 12, methyl 4-[6-{4-[(cyclopropylcarbamoyl)amino]phenyl}-4-(8-oxa-3-azabicyclo[3.2.1]oct-3-yl)-1H-pyrazolo[3,4-d]pyrimidin-1-yl]piperidine-1-carboxylate]
